Source: article PMC5856381 (2018)

Sequences of proteins named here, by UniProt entry; tags and fusion partners are left off.
UniProt P69905, whole entry, chain 1 of 2: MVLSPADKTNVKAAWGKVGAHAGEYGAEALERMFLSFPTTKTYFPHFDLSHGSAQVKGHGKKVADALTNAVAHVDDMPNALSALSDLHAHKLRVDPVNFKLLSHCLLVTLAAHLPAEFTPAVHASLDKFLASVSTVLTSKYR
hemoglobin (Hb), human, cell-free, UniProt P68871, whole entry, chain 2 of 2: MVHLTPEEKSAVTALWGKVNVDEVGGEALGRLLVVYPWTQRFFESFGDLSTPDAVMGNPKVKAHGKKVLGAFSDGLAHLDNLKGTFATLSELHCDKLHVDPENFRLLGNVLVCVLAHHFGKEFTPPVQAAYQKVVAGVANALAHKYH

Key:
[1] = biological target: T1, hemoglobin (Hb), human, cell-free (human, UniProt P69905 1-142; P68871 1-147); test: SPR
[2] = biological target: T1, hemoglobin (Hb), human, cell-free; test: SPR; remark: listed apart in the source

B1: human plasma derived haptoglobin (predominantly phenotype 2–2) (natural protein)
chain 1: VDSGNDVTDIADDGCPKPPEIAHGYVEHSVRYQCKNYYKLRTEGDGVYTLNDKKQWINKAVGDKLPECEADDGCPKPPEIAHGYVEHSVRYQCKNYYKLRTEGDGVYTLNNEKQWINKAVGDKLPECEAVCGKPKNPANPVQ
chain 2: ILGGHLDAKGSFPWQAKMVSHHNLTTGATLINEQWLLTTAKNLFLNHSENATAKDIAPTLTLYVGKKQLVEIEKVVLHPNYSQVDIGLIKLKQKVSVNERVMPICLPSKDYAEVGRVGYVSGWGRNANFKFTDHLKYVMLPVADQDQCIRHYEGSTVPEKKTPKSPVGVQPILNEHTFCAGMSKYQEDTCYGDAGSAFAVHDLEEDTWYATGILSFDKSCAVAEYGVYVKVTSIQDWVQKTIAEN
Kd [1]: < 5e-08 mM | koff [2]: < 5e-05 s⁻¹

B2: cleavage-site mutated recombinant haptoglobin Hp2FS (Q160A, R161A), uncleaved proHp (natural protein)
chain: VDSGNDVTDIADDGCPKPPEIAHGYVEHSVRYQCKNYYKLRTEGDGVYTLNDKKQWINKAVGDKLPECEADDGCPKPPEIAHGYVEHSVRYQCKNYYKLRTEGDGVYTLNNEKQWINKAVGDKLPECEAVCGKPKNPANPVAAILGGHLDAKGSFPWQAKMVSHHNLTTGATLINEQWLLTTAKNLFLNHSENATAKDIAPTLTLYVGKKQLVEIEKVVLHPNYSQVDIGLIKLKQKVSVNERVMPICLPSKDYAEVGRVGYVSGWGRNANFKFTDHLKYVMLPVADQDQCIRHYEGSTVPEKKTPKSPVGVQPILNEHTFCAGMSKYQEDTCYGDAGSAFAVHDLEEDTWYATGILSFDKSCAVAEYGVYVKVTSIQDWVQKTIAEN
modifications: Uncleaved single-chain proHp2FS with signal peptide removed; heterogeneous disulfide-linked multimers (n variable); N-glycosylated; C-terminal 8xHis tag omitted
Kd [1]: 1.9 mM | koff [2]: 0.0159 s⁻¹

B3: cleavage-site mutated recombinant haptoglobin Hp1S (Q101A, R102A), uncleaved proHp (natural protein)
chain: VDSGNDVTDIADDGCPKPPEIAHGYVEHSVRYQCKNYYKLRTEGDGVYTLNNEKQWINKAVGDKLPECEAVCGKPKNPANPVAAILGGHLDAKGSFPWQAKMVSHHNLTTGATLINEQWLLTTAKNLFLNHSENATAKDIAPTLTLYVGKKQLVEIEKVVLHPNYSQVDIGLIKLKQKVSVNERVMPICLPSKDYAEVGRVGYVSGWGRNANFKFTDHLKYVMLPVADQDQCIRHYEGSTVPEKKTPKSPVGVQPILNEHTFCAGMSKYQEDTCYGDAGSAFAVHDLEEDTWYATGILSFDKSCAVAEYGVYVKVTSIQDWVQKTIAEN
modifications: Uncleaved single-chain proHp1S with signal peptide removed; paper's Q101/R102 (precursor Hp1 numbering) = Q160/R161 of P00738; disulfide-linked dimer; N-glycosylated; C-terminal 8xHis tag omitted
Kd [1]: 2.11 mM | koff [2]: 0.0159 s⁻¹

B4: recombinant haptoglobin Hp2FS, C1r-LP processed (rHp 2–2) (natural protein)
chain 1: VDSGNDVTDIADDGCPKPPEIAHGYVEHSVRYQCKNYYKLRTEGDGVYTLNDKKQWINKAVGDKLPECEADDGCPKPPEIAHGYVEHSVRYQCKNYYKLRTEGDGVYTLNNEKQWINKAVGDKLPECEAVCGKPKNPANPVQ
chain 2: ILGGHLDAKGSFPWQAKMVSHHNLTTGATLINEQWLLTTAKNLFLNHSENATAKDIAPTLTLYVGKKQLVEIEKVVLHPNYSQVDIGLIKLKQKVSVNERVMPICLPSKDYAEVGRVGYVSGWGRNANFKFTDHLKYVMLPVADQDQCIRHYEGSTVPEKKTPKSPVGVQPILNEHTFCAGMSKYQEDTCYGDAGSAFAVHDLEEDTWYATGILSFDKSCAVAEYGVYVKVTSIQDWVQKTIAEN
Kd [1]: < 5.4e-08 mM | koff [2]: < 5e-05 s⁻¹

B5: recombinant haptoglobin Hp1S, C1r-LP processed (rHp 1–1) (natural protein)
chain 1: VDSGNDVTDIADDGCPKPPEIAHGYVEHSVRYQCKNYYKLRTEGDGVYTLNNEKQWINKAVGDKLPECEAVCGKPKNPANPVQR
chain 2: ILGGHLDAKGSFPWQAKMVSHHNLTTGATLINEQWLLTTAKNLFLNHSENATAKDIAPTLTLYVGKKQLVEIEKVVLHPNYSQVDIGLIKLKQKVSVNERVMPICLPSKDYAEVGRVGYVSGWGRNANFKFTDHLKYVMLPVADQDQCIRHYEGSTVPEKKTPKSPVGVQPILNEHTFCAGMSKYQEDTCYGDAGSAFAVHDLEEDTWYATGILSFDKSCAVAEYGVYVKVTSIQDWVQKTIAEN
Kd [1]: < 4.8e-08 mM | koff [2]: < 5e-05 s⁻¹
